From patent US20010029264A1, “Novel methods and compositions for delivery of taxanes” (priority 1998, published 2001)

Experiment: Oral feasibility PK in dogs (paclitaxel capsules, plasma HPLC)
Assay type: in vivo
Description: The formulation was as follows: […]
and was hand filled into single 0 hard gelatin capsules to a dose of approximately 34 mg/capsule.
Capsules were inserted into the esophagus and followed with a brief squirt of water and the animals held until swallowing was observed.

AUC (sum of trapezoids) (male beagle FJF-8, oral, 3 capsules Vitamin E TPGS/DMI formulation, 7.66 mg/kg): 202 nghr/mL
AUC (sum of trapezoids) (male beagle IOF-8, oral, 3 capsules Vitamin E TPGS/DMI formulation, 6.88 mg/kg): 135 nghr/mL
AUC (sum of trapezoids) (male beagle OEF-8, oral, 1 capsule Vitamin E TPGS/DMI formulation, 3.27 mg/kg): 187 nghr/mL
AUC (sum of trapezoids) (male beagle OLF-8, oral, 3 capsules Vitamin E TPGS/DMI formulation, 11.14 mg/kg): 189 nghr/mL
AUC (sum of trapezoids) (male beagle PXF-8, oral, 1 capsule Vitamin E TPGS/DMI formulation, 3.23 mg/kg): 194 nghr/mL
Structure (SMILES): CC(=O)O[C@H]1C(=O)[C@@]2(C)[C@H]([C@H](OC(=O)c3ccccc3)[C@]3(O)C[C@H](OC(=O)[C@H](O)[C@@H](NC(=O)c4ccccc4)c4ccccc4)C(C)=C1C3(C)C)[C@]1(OC(C)=O)CO[C@@H]1C[C@@H]2O [paclitaxel]
